# The list shows a part of the results, in another mix than the full data. Some tests of the compounds listed are not included; inactive here does not mean inactive elsewhere. Calls of active or inactive are those of the source. Rule as the data show it: active = inhibition above about 25%; inactive = the rest.
# Sequences of proteins named here, by UniProt entry; tags and fusion partners are left off.
# UniProt O00206, whole entry: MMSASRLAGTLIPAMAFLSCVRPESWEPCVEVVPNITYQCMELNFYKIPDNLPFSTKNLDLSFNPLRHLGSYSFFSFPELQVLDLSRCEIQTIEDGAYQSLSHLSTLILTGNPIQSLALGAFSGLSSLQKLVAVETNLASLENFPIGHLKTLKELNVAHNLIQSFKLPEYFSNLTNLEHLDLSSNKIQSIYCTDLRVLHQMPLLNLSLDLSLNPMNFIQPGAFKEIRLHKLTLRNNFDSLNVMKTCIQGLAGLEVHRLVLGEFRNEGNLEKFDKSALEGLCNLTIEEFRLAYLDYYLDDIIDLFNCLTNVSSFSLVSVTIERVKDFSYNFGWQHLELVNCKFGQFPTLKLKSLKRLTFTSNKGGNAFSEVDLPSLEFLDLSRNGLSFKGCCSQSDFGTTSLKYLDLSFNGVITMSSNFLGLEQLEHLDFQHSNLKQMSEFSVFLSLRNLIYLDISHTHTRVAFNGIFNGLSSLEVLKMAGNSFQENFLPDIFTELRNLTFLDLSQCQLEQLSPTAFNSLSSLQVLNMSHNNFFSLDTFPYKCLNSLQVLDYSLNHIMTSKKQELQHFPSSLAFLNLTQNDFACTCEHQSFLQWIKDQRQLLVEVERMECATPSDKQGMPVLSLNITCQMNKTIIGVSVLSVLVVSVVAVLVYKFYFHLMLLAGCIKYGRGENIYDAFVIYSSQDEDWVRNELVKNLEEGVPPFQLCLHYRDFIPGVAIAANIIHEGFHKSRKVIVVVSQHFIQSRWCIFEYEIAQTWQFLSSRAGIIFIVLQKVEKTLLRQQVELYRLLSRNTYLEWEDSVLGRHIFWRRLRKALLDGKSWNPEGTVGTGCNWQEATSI
# Target: Toll-like receptor 4 (Homo sapiens) + Myeloid differentiation primary response protein MyD88 (Homo sapiens) (UniProt O00206+Q99836)
# Assay: disruptors of TLR4 binding to MyD88 – cell-based, HeLa CL3-4, BLA complementation, FRET ratio, primary screen (AID 861);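 also: 0% = vehicle and 100% = reference inhibitor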
# Conditions: HeLa CL3-4 TLR4/MyD88 BLA complementation, at 8.4 µM, active compounds read high
row,Structure (SMILES),inhibition
1,O=C(OC1CN2CCC1CC2)C(CO)(c1ccccc1)c1ccccc1 (centres undefined),inactive: 16.2%
2,CN(C)c1cccc(C(=O)NCC2(N(C)C)CCCCC2)c1,inactive: 3.13%
3,COc1cccc(C(=O)NCC2(N3CCCCC3)CCCCC2)c1,inactive: 6.08%
4,Cc1ccccc1C(=O)NCC1(N2CCCCC2)CCCCC1,inactive: 5.72%
5,CN(C)C1CCCC1OC(=O)C(O)(c1ccccc1)c1ccccc1 (centres undefined),inactive: -7.19%
6,CCN1CCCC(OC(=O)C2(O)c3ccccc3C=Cc3ccccc32)C1 (centres undefined),inactive: -5.4%
7,C=CCN1CCN(CCOC(=O)C(O)(c2ccccc2)c2ccccc2)CC1,inactive: 2.31%
8,O=C(NCC1(N2CCCCC2)CCCCC1)c1cc([N+](=O)[O-])ccc1Cl,inactive: -16.1%
9,CC(C)N1C(=O)CC2(CCN(CCOC(=O)C(O)(c3ccccc3)c3ccccc3)CC2)C1=O,inactive: 0.9%
